This assay concerns the target T1, MR (Homo sapiens, UniProt P08235).
T1 construct: expressed in transfected cells; host or cells: Huh7 human liver cells (ATCC), transient transfection with FuGENE 6
T1 sequence (P08235 726-964 limits assumed): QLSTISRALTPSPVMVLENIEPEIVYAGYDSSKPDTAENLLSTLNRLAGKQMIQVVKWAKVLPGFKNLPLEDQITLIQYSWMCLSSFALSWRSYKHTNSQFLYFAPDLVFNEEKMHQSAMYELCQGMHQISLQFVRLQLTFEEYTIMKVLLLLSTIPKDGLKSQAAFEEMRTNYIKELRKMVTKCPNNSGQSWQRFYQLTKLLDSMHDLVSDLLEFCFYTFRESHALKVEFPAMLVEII
Description: Cell-based reporter assay (Gal4-MR-LBD luciferase, antagonist mode). The procedure: To measure the ability of test compound in the present invention to modulate the activity of MR (agonize, antagonize, partially agonize, partially antagonize), bioassays were performed that measured the modulation of reporter gene expression. Cells were transiently transfected with a luciferase reporter gene under the control of a Gal4 response element (Gal4-RE-luc) and a plasmid containing the Gal4 DNA binding domain fused to the MR ligand binding domain (Gal4-MR-LBD). Agonists can bind to and activate the MR-LBD, which activates the expression of the luciferase reporter gene through interaction with the Gal4 response element. […] Antagonists can compete for binding to the NHR-LBD and decrease the agonist-induced transcriptional activity of the reporter gene. Therefore, measurement of luciferase activity allowed quantitative determinations of the reporter transcription in the presence of either agonists or competitive antagonists.
The final concentration of DMSO in the test plate was 0.5%. Following an overnight incubation with compound, 25 μL of Steady-Glow™ lysis buffer with luciferase substrate (Promega Corporation, E2550) was added directly to the cells. After a 30-minute incubation to completely lyse the cells, the microplates were counted in an Envision™ Multilabel Reader (Perkin Elmer) in single photon counting mode.

For orientation: IC50 means the midpoint of a concentration-inhibition curve. Low readings indicate greater potency, high ones weaker potency.

Take `C[C@H]1CN(c2ccc3c(n2)NC(=O)CO3)[C@@H](c2ccc(F)cc2)CO1` (racemic) [Example 9, (±)-6-(cis-5-(4-fluorophenyl)-2-methylmorpholino)-2H-pyrido[3,2-b][1,4]oxazin-3(4H)-one]: the half-maximal inhibitory concentration (IC50) was 137 nM.

`C[C@H]1CN(c2ccc3c(n2)NC(=O)CO3)[C@@H](c2cccc(F)c2)CO1` (racemic) [Example 11, (±)-6-(cis-5-(3-fluorophenyl)-2-methylmorpholino)-2H-pyrido[3,2-b][1,4]oxazin-3(4H)-one]: it took 89.9 nM to reach half-maximal inhibition (IC50).

`C[C@H]1CN(c2ccc3c(n2)NC(=O)CO3)[C@H](c2ccc(F)cc2)CO1` (racemic) [Example 48, (±)-6-(trans-5-(4-fluorophenyl)-2-methylmorpholino)-2H-pyrido[3,2-b][1,4]oxazin-3(4H)-one] came in with a half-maximal inhibitory concentration (IC50) of 1380 nM.

In turn, `C[C@@H]1CN(c2ccc3c(n2)NC(=O)CO3)[C@H](c2ccc(F)cc2)CO1` (single isomer, unassigned) [Example 10] had an IC50 of 105 nM.

`C[C@@H]1CN(c2ccc3c(n2)NC(=O)CO3)[C@H](c2cccc(F)c2)CO1` (single isomer, unassigned) [Example 29] returned an IC50 of 55 nM.

The record behind these values is US20110281854A1, “MORPHOLINE COMPOUNDS” (Pfizer Inc, priority 2010, published 2011).
